Laboratory results published in paper PMC11594144.

What was measured:
Assay in all cases: AUC
[1] = molecular target: Vip3Aa64 activated toxin (trypsin-digested) E168C:N242C (Bacillus thuringiensis)
[2] = molecular target: Vip3Aa64 activated toxin (trypsin-digested) T167C (Bacillus thuringiensis)
[3] = molecular target: Vip3Aa64 activated toxin (trypsin-digested) E168C (Bacillus thuringiensis)
[4] = molecular target: Vip3Aa64 activated toxin (trypsin-digested) N242C (Bacillus thuringiensis)
[5] = molecular target: Vip3Aa64 activated toxin (trypsin-digested) F229Y (Bacillus thuringiensis)

## Vip3Aa64 activated toxin (trypsin-digested) E168C:N242C (complex)
[1]
  stoichiometry N: 4

## Vip3Aa64 activated toxin (trypsin-digested) T167C (complex)
[2]
  stoichiometry N: 4

## Vip3Aa64 activated toxin (trypsin-digested) E168C (complex)
[3]
  stoichiometry N: 4

## Vip3Aa64 activated toxin (trypsin-digested) N242C (complex)
[4]
  stoichiometry N: 4

## Vip3Aa64 activated toxin (trypsin-digested) F229Y (complex)
[5]
  stoichiometry N: 4
